Test results as given in patent publication US20130158072A1, “KAPPA OPIOID RECEPTOR BINDING LIGANDS” (Research Triangle Institute, priority 2010, published 2013).

Protein sequences, listed by entry. Tags and fused reporters are not part of them.
UniProt P35372, whole entry: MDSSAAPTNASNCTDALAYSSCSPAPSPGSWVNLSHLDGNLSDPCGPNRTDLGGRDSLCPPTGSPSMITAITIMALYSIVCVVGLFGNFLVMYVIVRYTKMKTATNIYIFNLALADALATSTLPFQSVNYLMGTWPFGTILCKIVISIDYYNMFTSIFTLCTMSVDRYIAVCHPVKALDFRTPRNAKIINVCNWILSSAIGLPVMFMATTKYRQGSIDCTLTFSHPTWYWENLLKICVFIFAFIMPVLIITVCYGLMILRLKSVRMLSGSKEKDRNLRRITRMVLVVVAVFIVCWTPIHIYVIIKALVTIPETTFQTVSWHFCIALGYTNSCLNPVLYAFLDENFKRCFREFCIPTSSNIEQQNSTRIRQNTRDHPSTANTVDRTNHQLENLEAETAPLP

Legend:
[1] = biological target: T1, cloned human δ-opioid receptor (Homo sapiens, UniProt P41143); test: Inhibition of DPDPE-stimulated [35S]GTPγS binding; assay type: biochemical
T1 construct: expressed in transfected cells; host or cells: CHO cells

[2] = biological target: T2, cloned human μ-opioid receptor (Homo sapiens, UniProt P35372); test: Inhibition of DAMGO-stimulated [35S]GTPγS binding; assay type: biochemical
T2 construct: expressed in transfected cells; host or cells: CHO cells

Row | Compound | Kb [1] | Kb [2]
1 | CC[C@H](C)[C@@H](CN1CC[C@@](C)(c2cccc(OC)c2)[C@@H](C)C1)NC(=O)[C@H]1Cc2ccc(O)cc2CN1 [Compound 8f, (3R)-7-Hydroxy-N-[(1S,2S)-1-{[(3R,4R)-4-(3-methoxyphenyl)-3,4-dimethylpiperidin-1-yl]methyl}-2-methylbutanyl]-1,2,3,4-tetrahydroisoquinoline-3-carboxamide] | 1.17 ± 0.4 µM | 
2 | COc1cccc([C@]2(C)CCN(C[C@@H](NC(=O)[C@@]3(C)Cc4ccc(O)cc4CN3)C(C)C)C[C@@H]2C)c1 [Compound 8h, (3R)-7-Hydroxy-N-[(1S)-1-{[(3R,4R)-4-(3-methoxyphenyl)-3,4-dimethylpiperidin-1-yl]methyl}-2-methylpropyl]-3-methyl-1,2,3,4-tetrahydroisoquinoline-3-carboxamide] |  | 0.123 ± 0.03 µM
3 | CC[C@H](C)[C@@H](CN1CC[C@@](C)(c2cccc(O)c2)[C@@H](C)C1)NC(=O)[C@@]1(C)Cc2ccc(O)cc2CN1 [Compound 8i, (3R)-7-Hydroxy-N-[(1S,2S)-1-{[(3R,4R)-4-(3-hydroxyphenyl)-3,4-dimethylpiperidin-1-yl]methyl}-2-methylbutanyl]-3-methyl-1,2,3,4-tetrahydroisoquinoline-3-carboxamide] | 0.149 ± 0.013 µM | 
4 | COc1cccc([C@]2(C)CCN(C[C@@H](NC(=O)[C@@]3(C)Cc4ccc(OC)cc4CN3)C(C)C)C[C@@H]2C)c1 [Compound 8l, (3R)-7-Methoxy-N-[(1S)-1-{[(3R,4R)-4-(3-methoxyphenyl)-3,4-dimethylpiperidin-1-yl]methyl}-2-methylpropyl]-3-methyl-1,2,3,4-tetrahydroisoquinoline-3-carboxamide] |  | 1.45 ± 0.49 µM
5 | CC[C@H](C)[C@@H](CN1CC[C@@](C)(c2cccc(OC)c2)[C@@H](C)C1)NC(=O)[C@@]1(C)Cc2ccc(O)cc2CN1 [Compound 8n, (3R)-7-Hydroxy-N-[(1S,2S)-1-{[(3R,4R)-4-(3-methoxyphenyl)-3,4-dimethylpiperidin-1-yl]methyl}-2-methylbutanyl)-3-methyl-1,2,3,4-tetrahydroisoquinoline-3-carboxamide] |  | 0.0591 ± 0.016 µM
6 | COc1ccc2c(c1)CN(C)[C@@](C)(C(=O)N[C@H](CN1CC[C@@](C)(c3cccc(O)c3)[C@@H](C)C1)C(C)C)C2 [Compound 8o, (3R)-7-Methoxy-N-[(1S)-1-{[(3R,4R)-4-(3-hydroxyphenyl)-3,4-dimethylpiperidin-1-yl]methyl}-2-methylpropyl]-2,3-dimethyl-1,2,3,4-tetrahydroisoquinoline-3-carboxamide] | 0.117 ± 0.03 µM | 
